The data set can be described thus: Solubility in organic solvents. As to the method: Hexanes and an excess of trimethylaluminum were removed under vacuum.
A mixture of [CPh3][(CH3)3NB12F11] […] A mixture was stirred under a nitrogen atmosphere for 20 h.
The orange microcrystalline compound (CPh3)2B12F12 (0.195 g, 0.231 mmol) was treated with 2 ml of toluene solution of AlMe3 (0.161 g, 2.240 mmol). […] The mixture was stirred for additional 40 hours.

For Al(CH3)2(1-C12H25-CB11F11), the solubility in hexanes result (hexanes) is reported as “at least 0.02 M”. Also, the “solubility in aliphatic hydrocarbon solvents” value by setting is: (hexanes, methylcyclohexane) “highly soluble”; (hexanes, methylcyclohexane, listed as AlMe2(1-Dd-CB11F11)) “soluble”. The solubility in methylcyclohexane entry (methylcyclohexane) was “at least 0.05 M”.

(Values after patent US6645903B2, “Fluoroborane salts comprising a reactive cation and uses thereof” (Colorado State University Research Foundation, priority 2000, dated 2003).)
